Results on one molecule are retold here after ChEMBL document CHEMBL1141349, “Cytochrome P3A4 inhibitors and other constituents of Fibraurea tinctoria” (J Nat Prod, 2007).

Sequences of proteins named here, by UniProt entry; tags and fusion partners are left off.
UniProt P08684, whole entry: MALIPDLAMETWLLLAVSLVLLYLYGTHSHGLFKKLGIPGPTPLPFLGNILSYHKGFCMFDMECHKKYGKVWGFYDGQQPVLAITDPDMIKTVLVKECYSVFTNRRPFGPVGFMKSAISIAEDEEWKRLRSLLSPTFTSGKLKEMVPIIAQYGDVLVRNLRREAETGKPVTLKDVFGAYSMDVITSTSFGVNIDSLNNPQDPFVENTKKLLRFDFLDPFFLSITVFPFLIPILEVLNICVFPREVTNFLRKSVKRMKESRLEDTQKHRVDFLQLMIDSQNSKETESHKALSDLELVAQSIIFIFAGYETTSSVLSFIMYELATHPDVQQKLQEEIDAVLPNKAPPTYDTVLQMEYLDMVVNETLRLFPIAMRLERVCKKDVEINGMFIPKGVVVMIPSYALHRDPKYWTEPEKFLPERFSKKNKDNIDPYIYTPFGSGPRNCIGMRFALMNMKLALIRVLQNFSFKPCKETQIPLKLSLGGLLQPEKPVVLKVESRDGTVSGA

This experiment addresses Cytochrome P450 3A4 (Homo sapiens, UniProt P08684). Briefly: Inhibition of human CYP3A4 expressed in Escherichia coli assessed as inhibition of nifedipine oxidation. The class given is ADME. In a few lines:
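Bicistronic human CYP3A4 expressed in E. coli DH5; bacterial membrane fractions (sonication, differential centrifugation) stored at -75 °C, P450 content by CO-difference spectroscopy. Nifedipine substrate with 100 pmol P450 per incubation, 37 °C shaking waterbath; pyridine metabolite quantified by HPLC.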

Consider `COc1cc2c(cc1O)CC[n+]1cc3c(OC)c(OC)ccc3cc1-2` [JATRORRHIZINE], for which the IC50 stood at 2100 nM.

Usually IC50 stands for the concentration needed to halve the response being measured.
